## scFv variants of Ab-91 (heavy chain) against a SARS-CoV-2 spike peptide

Binding partner: SARS-CoV-2 spike HR2 peptide, sequence PDVDLGDISGINAS.

Each scFv is VL, a (GGGGS)3 linker, VH, as in the parent Ab-91, and differs from it in the CDRs of the heavy chain only.
VL: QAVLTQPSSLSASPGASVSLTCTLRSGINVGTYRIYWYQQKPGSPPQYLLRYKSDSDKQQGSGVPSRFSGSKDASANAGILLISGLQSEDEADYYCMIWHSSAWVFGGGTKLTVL
VH: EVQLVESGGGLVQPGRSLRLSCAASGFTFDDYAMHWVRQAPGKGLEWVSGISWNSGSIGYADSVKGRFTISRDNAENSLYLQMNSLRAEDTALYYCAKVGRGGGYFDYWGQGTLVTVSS

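Library AAYL51 holds single substitutions and randomly drawn double and triple substitutions in the CDRs. The scFvs were displayed on barcoded MATa yeast, the peptide on MATalpha yeast. Pairs that bind mate more often; barcode pairs of the diploids are counted by sequencing. Read counts were normalised to the haploid input and turned into Kd by a linear fit to BCL2-family pairs of known affinity, for each replicate. Mating was done three times.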

The parent's heavy chain CDRs are GFTFDDYAMH, GISWNSGSIGYADSVK, VGRGGGYFDY; each variant's own CDRs replace them letter for letter.
The read-out is the apparent dissociation constant on a log10 scale (nM): the lower, the stronger.
A pair that was not seen in that replicate is written "nd"; this usually means weak binding, but a binder can also be missed.
Empty control strains, which show no peptide, gave a signal in 21% of pairings with library AAYL51; the median was 4.54 and 95% of these signals were weaker than 3.26. No background was subtracted. For each scFv, signals with the empty controls are counted beside the result, with their mean in brackets.
Parent in this assay: reference entry 1.86, copy in this library 0.88.

| CDR-H1 | CDR-H2 | CDR-H3 | log10 Kd, replicates | signal with controls |
|---|---|---|---|---|
| GFTFDDYAMY | GISWNSGSCGYADSVC | VGRGGGYFDY | nd / nd / nd | 0 of 9 |
| GFIFDDYAMH | RISWNMGSIGYADSVK | VGRGGGYFDY | 5.91 / 6.13 / nd | 2 of 9 (3.90) |
| GFTFDDYAMH | GISWNSGSIGYHDSVK | PFRGGGYFDY | 2.70 / 1.92 / 2.25 | 2 of 9 (3.94) |
| GFTFDDYAMH | EISWNSGSIMYADSVK | VGRGGGYTDY | nd / nd / nd | 0 of 9 |
| GQTFDDYAMH | GIQWVSGSIGYADSVK | VGRGGGYFDY | nd / 4.69 / nd | 3 of 9 (4.56) |
| GFTFDDYAMH | GISWNSHSPEYADSVK | VGRGGGYFDY | 4.92 / 4.49 / nd | 3 of 9 (4.21) |
| GFTGDDYAMH | GISWNSGSSGYADSVK | VGRGGGYFDY | nd / 3.56 / nd | 1 of 9 (3.55) |
| GFTFDDYAMH | GSSWNSGSIGYADSVE | VGRGGGYFDY | nd / nd / nd | 0 of 9 |
| GFTFDWYAMH | GISPNSGSIGYADSVK | FGRGGGYFDY | nd / nd / nd | 0 of 9 |
| GFTFDDYAMH | GIMWNSGHIGQADSVK | VGRGGGYFDY | nd / nd / nd | 3 of 9 (3.77) |
| GFLFDDYAMH | GISWNSGSITYADSVK | VGRGGGYFYY | nd / nd / nd | 0 of 9 |
| GFKFDDYAMH | GISWNSGSIGYADSVK | VGRGGGKFDG | 2.57 / 2.17 / 2.14 | 3 of 9 (4.43) |
| GFTFDNYAMH | PISWNSGSIGYAYSVK | VGRGGGYFDY | 6.51 / 5.35 / 4.80 | 4 of 9 (4.87) |
| DFTLDDYAMH | GISWNSGSIGYADSVK | VGRGGGTFDY | 3.37 / nd / nd | 0 of 9 |
| GQTFDDYAMH | GISWNSGSIGYASSVK | VGNGGGYFDY | 4.26 / 4.34 / nd | 6 of 9 (4.29) |
| GFYFDDYAMH | GISWNSGSIGYADSVK | EFRGGGYFDY | nd / nd / nd | 2 of 9 (4.75) |
| GFTFDDYAMH | GQSWNSGSQGYADSVK | VGLGGGYFDY | 3.57 / nd / nd | 0 of 9 |
| GFTFDDYAMH | GISWNSASIGYADSVK | VARGYGYFDY | 1.13 / 1.12 / 0.63 | 2 of 9 (4.95) |
| GETFDDYAMH | GISWNSGSIGYADSVW | VGRYGGYFDY | 3.70 / 6.11 / 3.90 | 2 of 9 (4.91) |
| GFTFDDYAMH | GISWNSGSIGHADSVK | VGRGGGYFDY | nd / nd / nd | 0 of 9 |
| GFTFDDYAMH | GISWNSGSIGYADSVK | YGSGFGYFDY | 4.45 / 7.15 / 4.88 | 5 of 9 (4.66) |
| GFTFDDYAMH | GISWNSGSIGKADASK | VGRGGGYFDY | 4.95 / 5.89 / nd | 2 of 9 (4.34) |
| GFTFDDYADH | GIQWNSGSIGYADSVK | VERGGGYFDY | nd / nd / nd | 0 of 9 |
| GFTFDDYAMH | GISHNSGSIGYADDVH | VGRGGGYFDY | nd / 4.32 / nd | 0 of 9 |
| GFTFDDYAMH | GISWNSGSIGDADCVE | VGRGGGYFDY | 3.84 / nd / nd | 4 of 9 (4.48) |
| GFTFDDYAMH | GISWNSGSYGYADSVM | VGRGGGNFDY | 1.96 / 2.01 / 1.63 | 3 of 9 (4.53) |
| GFTFDDYAMH | GISWNSGSIGYADHVK | VGRGGYYFLY | 5.54 / 4.38 / 4.39 | 5 of 9 (4.97) |
| GFTFDDYLME | GISWNSGSIGYADSVK | EGRGGGYFDY | nd / nd / nd | 3 of 9 (3.92) |
| GFTFDDYAMH | GISWNSGSIGYADSVK | SGRGGGYFDY | 2.57 / 2.31 / 2.41 | 2 of 9 (4.79) |
| GFTFDDYAMH | GISWNSGSIGYADSVK | VGRHGGVFDR | 1.41 / 1.43 / 1.15 | 3 of 9 (5.29) |
| GDTFDDLAMH | GISWNSGSIGYADEVK | VGRGGGYFDY | nd / 5.35 / nd | 1 of 9 (4.20) |
| GFTFDDYAMH | GISWNSGSIGYADSFV | VGRGGGYFSY | nd / 3.67 / nd | 2 of 9 (4.37) |
| GFTFDVYAMH | GISWNSRSIGYANSVK | VGRGGGYFDY | 3.07 / 2.84 / 2.51 | 2 of 9 (4.97) |
| GFTFDDYAMH | GISWNSGSIGYADSVK | QGRGGGYFDY | 2.89 / 2.64 / 3.34 | 3 of 9 (4.06) |
| GFTSDDYAMH | HISWNSGSIGYADSVP | VGRGGGYFDY | nd / nd / nd | 0 of 9 |
| GFTFDDYAMQ | GISWNSGGIGYADSVK | VGRGGGYYDY | nd / nd / nd | 0 of 9 |
| GFTFDDYCMH | GISWNSGSIEYADSVK | VGRGGGYFDY | nd / nd / nd | 0 of 9 |
| GFTFDDYAMH | GISWNSGSIGYAPSVK | VGRGGHYFDY | 2.01 / 1.71 / 1.79 | 2 of 9 (4.50) |
| GFTFPDYAMC | GISWNIGSIGYADSVK | VGRGGGYFDY | 4.84 / 4.66 / nd | 1 of 9 (5.36) |
| GFTFDDYAMH | GISWNSGSYGYADSCK | VMRGGGYFDY | nd / nd / nd | 0 of 9 |
| GCTFDDIAMH | GISWNSGSIHYADSVK | VGRGGGYFDY | 5.94 / nd / nd | 1 of 9 (4.29) |
| GFTFDDYAMH | GISWNSVSIGYYDSVK | VGRGGGYFDY | 2.79 / nd / 3.35 | 1 of 9 (3.60) |
| GFTFDDYAMH | GISWNSGQIGYGDSVK | VGRGGGYFGY | 3.40 / 2.59 / 3.08 | 3 of 9 (4.28) |
| GFTFPDYAMH | GISWNSGSIGYADSVK | VGRGGGDFDY | nd / nd / nd | 3 of 9 (4.24) |
| GFTFDDYAMH | GISWNSGSIGWADSRK | VGRGGGNFDY | 5.96 / 5.68 / 4.54 | 3 of 9 (4.21) |
| GFTFDDYAMH | GISWNSGSIGYADSRK | VQSGGGYFDY | nd / nd / nd | 0 of 9 |

The first 3 variants above that were never detected:

| CDR-H1 | CDR-H2 | CDR-H3 | log10 Kd, replicates | signal with controls |
|---|---|---|---|---|
| GFTFDDYAMY | GISWNSGSCGYADSVC | VGRGGGYFDY | nd / nd / nd | 0 of 9 |
| GFTFDDYAMH | EISWNSGSIMYADSVK | VGRGGGYTDY | nd / nd / nd | 0 of 9 |
| GFTFDDYAMH | GSSWNSGSIGYADSVE | VGRGGGYFDY | nd / nd / nd | 0 of 9 |

Source: Engelhart et al. 2022 (doi:10.1038/s41597-022-01779-4), MIT Lincoln Laboratory and A-Alpha Bio; data file from the FLAb repository.